Measured values: paper PMC2784894 (Chemistry & biology, 2009)

The chains behind the UniProt entries cited, without tags or fusion partners. Residues count along the entry.
UniProt O08808, 552-1255 limits assumed: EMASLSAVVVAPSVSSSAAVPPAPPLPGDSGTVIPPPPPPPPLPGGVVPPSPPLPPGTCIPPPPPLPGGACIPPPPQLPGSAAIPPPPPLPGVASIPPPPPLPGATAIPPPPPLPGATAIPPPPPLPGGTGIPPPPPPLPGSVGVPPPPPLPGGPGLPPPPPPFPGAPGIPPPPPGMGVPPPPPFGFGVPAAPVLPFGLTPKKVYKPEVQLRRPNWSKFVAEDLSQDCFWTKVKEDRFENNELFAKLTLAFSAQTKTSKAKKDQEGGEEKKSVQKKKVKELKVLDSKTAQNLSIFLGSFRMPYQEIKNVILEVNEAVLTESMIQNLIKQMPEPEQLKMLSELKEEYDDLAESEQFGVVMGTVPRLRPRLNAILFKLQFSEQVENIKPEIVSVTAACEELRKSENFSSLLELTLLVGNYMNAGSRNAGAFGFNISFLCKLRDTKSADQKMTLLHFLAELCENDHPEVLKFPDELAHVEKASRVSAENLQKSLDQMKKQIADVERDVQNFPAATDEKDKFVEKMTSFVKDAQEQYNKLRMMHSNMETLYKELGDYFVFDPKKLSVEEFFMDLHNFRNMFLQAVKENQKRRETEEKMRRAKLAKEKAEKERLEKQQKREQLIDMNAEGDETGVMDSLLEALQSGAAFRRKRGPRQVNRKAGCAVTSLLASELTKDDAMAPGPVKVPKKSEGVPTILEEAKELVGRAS

Experiments:
[1] = test system: fission yeast actin cytoskeleton; test: fission yeast actin cytoskeleton imaging; details: for effect on filamentous actin structures (GFP-CHD): 30 minutes at 25° C
GST-mDia1(FH1FH2) = GST-mDia1(FH1FH2) (Mus musculus, UniProt O08808); test: TIRF microscopy of filaments assembled from formin immobilized on beads; details: 100 μM SMIFH2, by 375 seconds; slightly more than four without SMIFH2
[2] = test system: formins from evolutionarily diverse organisms including yeast, nematode worm and mice; test: formin-mediated actin assembly in vitro, diverse formins; details: C. elegans CYK-1, S. pombe Cdc12, S. pombe Fus1, S. cerevisae Bni1, M. musculus mDia2
Cdc12 = target: T1, Cdc12 (Schizosaccharomyces pombe, UniProt Q10059); test: formin binding to pre-assembled barbed ends; details: concentration dependent, absence of profilin
T1 sequence (Q10059 882-1390 limits assumed): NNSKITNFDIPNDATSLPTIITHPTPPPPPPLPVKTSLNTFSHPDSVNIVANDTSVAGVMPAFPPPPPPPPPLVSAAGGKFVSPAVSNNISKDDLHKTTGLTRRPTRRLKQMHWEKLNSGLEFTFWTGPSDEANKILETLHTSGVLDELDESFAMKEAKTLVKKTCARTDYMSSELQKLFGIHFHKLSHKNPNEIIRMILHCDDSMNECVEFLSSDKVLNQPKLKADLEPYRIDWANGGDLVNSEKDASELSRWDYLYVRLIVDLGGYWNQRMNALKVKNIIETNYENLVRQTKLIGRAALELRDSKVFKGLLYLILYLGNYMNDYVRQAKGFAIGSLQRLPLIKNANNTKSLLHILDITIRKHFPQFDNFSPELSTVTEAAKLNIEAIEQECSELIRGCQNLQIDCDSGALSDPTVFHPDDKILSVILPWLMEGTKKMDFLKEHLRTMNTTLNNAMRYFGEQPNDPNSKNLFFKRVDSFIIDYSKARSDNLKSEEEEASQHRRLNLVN

[3] = test system: mDia1(FH1FH2) or mDia2(FH1FH2); details: at a concentration of 10 μM
Cdc12 and mDia2 = test: end-to-end annealing of actin filaments in the presence of formin; details: filaments severed in the presence of Cdc12, or Cdc12- and mDia2-nucleated seeds
CYK-1 = CYK-1 (Caenorhabditis elegans, UniProt Q7JP75); test: pyrene-actin assembly fluorescence; format: biochemical; details: 2.5 μM actin monomer, 100 nM formin, pH 7.0

For Cc1[nH]c2ccccc2c1CCNC(=O)c1ccccc1F [CK-666, reference compound], the “effect on filamentous actin structures (GFP-CHD)” value ([1]; 100 μM) was “specifically disassembled Arp2/3 complex-dependent actin patches”.
In the case of O=C1NC(=S)N(c2cccc(Br)c2)C(=O)/C1=C/c1ccco1 [SMIFH2], the “cells with observable actin capping protein-labeled actin patches (Acp2-GFP)” value ([1]; 10 μM SMIFH2, 30 minutes at 25° C) is reported as 100%, the “effect on filamentous actin structures (GFP-CHD)” value ([1]; 25 μM) is reported as “disassembled formin-dependent actin cables and contractile rings, but not actin patches” and the “average number of filaments per formin-absorbed bead” value (GST-mDia1(FH1FH2)) is reported as “less than 0.05 filaments”. For the same molecule, the “actin assembly by evolutionarily diverse formin FH1FH2 constructs” value [2] was “inhibits”, the “binding of Cdc12 to the barbed end” value (Cdc12) was “prevents Cdc12 from binding to the barbed end” and the “inhibition of formin-mediated actin assembly” value [3] was “at least 50%”. For the same molecule, the “end-to-end annealing of formin-associated filaments” value (Cdc12 and mDia2) was “does not allow formin to inhibit the end-to-end annealing”.
O=C1NC(=S)N(c2cccc(Br)c2)C(=O)C1=Cc1ccco1 [compound 1, SMIFH2] was tested, and the “maximum polymerization rate at 50 μM” value (CYK-1) was “SMIFH2 also inhibits actin assembly by evolutionarily diverse formin FH1FH2 constructs including C. elegans CYK-1”.
